Earlier results in US10010525B2, “Methods of inducing anesthesia” (The Regents of the University of California, priority 2012, dated 2018).

Target: NMDA receptor
Details: read-out: IC50, inhibition of NMDA receptor currents; cited from earlier work

In the case of CNC1(c2ccccc2Cl)CCCCC1=O (stereo not shown) [Ketamine], the IC50 is given as 14 µM.
